# PMC7723054
# The other results are listed elsewhere or left out.
# T1: LIN28A (human?, UniProt Q9H9Z2 1-209)
# T1 sequence: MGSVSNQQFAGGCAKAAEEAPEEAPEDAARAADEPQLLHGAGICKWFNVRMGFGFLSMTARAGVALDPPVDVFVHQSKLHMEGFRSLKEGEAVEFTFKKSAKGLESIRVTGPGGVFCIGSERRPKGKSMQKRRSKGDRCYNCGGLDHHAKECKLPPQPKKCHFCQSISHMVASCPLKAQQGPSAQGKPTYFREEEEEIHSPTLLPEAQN
# T2: CIRBP (Homo sapiens, UniProt Q14011 1-172)
# T2 sequence: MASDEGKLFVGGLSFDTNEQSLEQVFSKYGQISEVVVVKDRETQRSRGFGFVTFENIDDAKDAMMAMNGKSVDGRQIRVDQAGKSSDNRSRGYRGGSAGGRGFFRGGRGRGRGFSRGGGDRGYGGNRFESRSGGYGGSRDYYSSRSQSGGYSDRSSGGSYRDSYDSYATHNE
# T3: DHX36 (Homo sapiens, UniProt Q9H2U1 1-1008)
# T3 sequence: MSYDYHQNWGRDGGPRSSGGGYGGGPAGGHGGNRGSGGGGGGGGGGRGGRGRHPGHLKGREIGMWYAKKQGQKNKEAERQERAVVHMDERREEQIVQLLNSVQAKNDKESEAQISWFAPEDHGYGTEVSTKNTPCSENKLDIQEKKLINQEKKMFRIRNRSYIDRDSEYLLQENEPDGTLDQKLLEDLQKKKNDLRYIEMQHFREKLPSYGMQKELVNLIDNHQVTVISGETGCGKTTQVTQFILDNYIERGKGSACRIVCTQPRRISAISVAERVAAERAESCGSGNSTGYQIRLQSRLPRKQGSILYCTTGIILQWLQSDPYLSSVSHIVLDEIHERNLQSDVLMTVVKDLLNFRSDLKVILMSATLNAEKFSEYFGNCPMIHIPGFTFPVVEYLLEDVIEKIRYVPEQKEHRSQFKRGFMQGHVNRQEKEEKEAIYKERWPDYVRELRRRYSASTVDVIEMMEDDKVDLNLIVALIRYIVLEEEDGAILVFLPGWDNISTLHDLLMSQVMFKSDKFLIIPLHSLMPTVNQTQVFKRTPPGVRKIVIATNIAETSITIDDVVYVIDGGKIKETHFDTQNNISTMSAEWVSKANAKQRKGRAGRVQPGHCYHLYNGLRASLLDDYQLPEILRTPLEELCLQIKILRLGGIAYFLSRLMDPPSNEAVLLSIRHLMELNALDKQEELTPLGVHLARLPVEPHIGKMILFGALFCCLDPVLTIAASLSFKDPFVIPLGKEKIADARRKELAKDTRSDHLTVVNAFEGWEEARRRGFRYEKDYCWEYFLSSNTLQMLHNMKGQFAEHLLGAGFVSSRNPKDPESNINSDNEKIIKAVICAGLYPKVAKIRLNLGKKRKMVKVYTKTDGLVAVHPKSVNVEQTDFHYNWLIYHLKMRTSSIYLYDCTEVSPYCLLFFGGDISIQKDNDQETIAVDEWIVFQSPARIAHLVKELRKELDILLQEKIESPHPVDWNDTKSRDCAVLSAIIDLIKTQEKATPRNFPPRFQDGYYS
# B1: hsa-mir-1269b (structured_RNA)
# RNA: GGGACCAAACAUUCGUAUCUUCCCCACUGGUGUACGAAGUUUCAGCCUGGCUUCUCUGGUUCUCCAGCUUACAGGCUGAAGCUUCGUGCAC
# B2: hsa-mir-8067 (structured_RNA)
# RNA: GGGAAAUCCCACUCUCGCGUCAUGCAGUGGUGUACGAAGUUUCAGCUCAUAAAGAUGAUCGCUGAAGCUUCGUGCAC
# B3: hsa-mir-548aj-2 (structured_RNA)
# RNA: GGGACCAAUGUACACGCCUGUCUCAGACGGUGUACGAAGUUUCAGCUUUGCUAUUACUUUUAAUGGUAAAGCUGAAGCUUCGUGCAC
# B4: hsa-mir-548f-4 (structured_RNA)
# RNA: GGGAAAAGCGCUUGAGUAGACCUACCACGGUGUACGAAGUUUCAGCUUUUGCCAUUAAAAGUAAUGACAAAAGCUGAAGCUUCGUGCAC
# B5: hsa-mir-3160-1 (structured_RNA)
# RNA: GGGAACUGCCUCUCGGGUAACCAACAAAGGUGUACGAAGUUUCAGCCUCUCCUCCAGCUCAGCUGGUCAGGAGAGGCUGAAGCUUCGUGCAC
# B6: hsa-mir-4449 (structured_RNA)
# RNA: GGGAACGUGAGUACCGCGCACAUCUAAAGGUGUACGAAGUUUCAGCGGCGGGCGGCGGUGCCCGUCGCUGAAGCUUCGUGCAC
# B7: hsa-mir-1202 (structured_RNA)
# RNA: GGGACAUAGGUUAAGAUAUGUCCCGAUCGGUGUACGAAGUUUCAGCGGAGGCACUGCCAGGGCUGCCCACGCUGAAGCUUCGUGCAC
# B8: hsa-mir-1288 (structured_RNA)
# RNA: GGGAACGAGACGCCCAUCCGUUACCUAGGGUGUACGAAGUUUCAGCCUCACCAUAGUGGUGGAGCUGAAGCUUCGUGCAC
# B9: hsa-mir-6776 (structured_RNA)
# RNA: GGGAAUCGUGAAGAAACGGUUCCCUGACGGUGUACGAAGUUUCAGCGGUUCCCACGCCGCGGCAACCGCUGAAGCUUCGUGCAC
# B10: hsa-mir-4780 (structured_RNA)
# RNA: GGGAAAUGGAUAAUAACGAACUCGGAGCGGUGUACGAAGUUUCAGCGGACCAGCCCAAAGGCCAGGCCUGACCCGCUGAAGCUUCGUGCAC
# B11: hsa-mir-4318 (structured_RNA)
# RNA: GGGAAUAAAAGAAACGCGCUUACCAGACGGUGUACGAAGUUUCAGCUGUGGACAAGGGCCUUGUCUUAGACAGUCACUGCUGAAGCUUCGUGCAC
# B12: hsa-mir-513c (structured_RNA)
# RNA: GGGAGUCUGCAUACCGAUUGCACCCGAAGGUGUACGAAGUUUCAGCUUUAUGUGAACUAAAAUAUAAAGCUGAAGCUUCGUGCAC
# Columns and labels:
# Experiment in all cases: FOREST: bead pull-down of RNA structure library v1, barcode microarray; U1A/LIN28A: 20 mM HEPES pH 7.5, 80 mM KCl, 20 mM NaCl, 10% glycerol, 2 mM DTT, 0.1 ug/uL BSA, 4 C; BG4/CIRBP/DHX36: 10 mM Tris-HCl pH 7.5, 100 mM KCl (or LiCl),; high values mean tight binding
# LIN28A = biological target: T1, LIN28A
# CIRBP = biological target: T2, CIRBP
# DHX36 = biological target: T3, DHX36
binder,measurement,setting,value
B1,binding signal,LIN28A,-2.56 z-score
same,binding signal,CIRBP,-1.71 z-score
same,binding signal,DHX36,-0.347 z-score
B2,binding signal,LIN28A,-2.59 z-score
same,binding signal,CIRBP,-1.55 z-score
same,binding signal,DHX36,-2.22 z-score
B3,binding signal,LIN28A,-2.6 z-score
same,binding signal,CIRBP,0.0186 z-score
same,binding signal,DHX36,-0.792 z-score
B4,binding signal,LIN28A,-2.68 z-score
same,binding signal,CIRBP,-0.604 z-score
same,binding signal,DHX36,-0.716 z-score
B5,binding signal,LIN28A,-2.8 z-score
same,binding signal,CIRBP,-0.454 z-score
same,binding signal,DHX36,-1.07 z-score
B6,binding signal,LIN28A,-2.87 z-score
same,binding signal,CIRBP,-1.39 z-score
same,binding signal,DHX36,-0.978 z-score
B7,binding signal,LIN28A,-2.9 z-score
same,binding signal,CIRBP,-1.81 z-score
same,binding signal,DHX36,-2 z-score
B8,binding signal,LIN28A,-2.96 z-score
same,binding signal,CIRBP,-2.89 z-score
same,binding signal,DHX36,-1.55 z-score
B9,binding signal,LIN28A,-3.55 z-score
same,binding signal,CIRBP,-2.36 z-score
same,binding signal,DHX36,-1.71 z-score
B10,binding signal,CIRBP,1.15 z-score
same,binding signal,DHX36,0.53 z-score
B11,binding signal,CIRBP,0.9 z-score
same,binding signal,DHX36,0.232 z-score
B12,binding signal,CIRBP,-1.22 z-score
same,binding signal,DHX36,-1.41 z-score
